Experimental data taken from ChEMBL document CHEMBL1154626, “Novel, potent, and selective quinoxaline-based 5-HT(3) receptor ligands. 1. Further structure-activity relationships and pharmacological characterization” (J Med Chem, 2009).

Amino acid sequences for entries named in this document (tags omitted).
UniProt O70212, whole entry: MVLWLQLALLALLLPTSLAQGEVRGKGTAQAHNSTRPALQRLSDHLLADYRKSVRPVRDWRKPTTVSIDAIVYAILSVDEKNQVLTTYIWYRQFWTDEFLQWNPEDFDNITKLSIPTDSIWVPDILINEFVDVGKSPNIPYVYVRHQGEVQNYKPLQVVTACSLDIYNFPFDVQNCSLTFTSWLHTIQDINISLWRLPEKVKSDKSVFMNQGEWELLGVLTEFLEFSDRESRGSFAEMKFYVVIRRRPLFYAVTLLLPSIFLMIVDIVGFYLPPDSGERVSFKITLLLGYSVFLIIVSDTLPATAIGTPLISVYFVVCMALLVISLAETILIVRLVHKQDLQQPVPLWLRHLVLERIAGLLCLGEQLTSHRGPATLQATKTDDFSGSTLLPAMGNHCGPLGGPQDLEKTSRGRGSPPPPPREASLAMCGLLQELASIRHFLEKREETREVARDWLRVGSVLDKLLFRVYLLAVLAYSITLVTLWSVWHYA

Target: 5-hydroxytryptamine receptor 3A (Cavia porcellus) (UniProt O70212)
Conditions: Cardiac atrium

`c1ccc(CN2CCN(c3nc4ncccc4n4cccc34)CC2)cc1` was tested, and the pA2 was “inactive”.

Calls of active or inactive are those of the source. The calls are words filed in the database; no cut-off is given here.
